Test results published in patent US20040023981A1, “Salt forms with tyrosine kinase activity” (priority 2002, published 2004).

How the values were obtained:
[1] = for weight gain: 75% RH
[2] = not given; remark: listed apart in the source
[3] = for pH of the resulting aqueous solution: water solubility sample

Compound | solid form after suspension in water (suspension time not stated) | hygroscopicity (in words) ([1]; 25° C.) | solid form after suspension in water (3 weeks suspension) | weight gain [1] [% wt.] | solubility in water (drug concentration in the supernatant) [3] [µg/mL] | pH of the resulting aqueous solution [3] | other results
CNC(=O)N1CCN(Cc2ccnc(Nc3ncc(C#N)s3)c2)CC1 [Form C, 4-[2-(5-cyano-thiazol-2-ylamino)-pyridin-4-ylmethyl]-piperazine-1-carboxylic acid methylamide] | – | not hygroscopic | – | – | – | – | moisture picked up ([1]; 25° C., 90% RH): about 0.6%
CNC(=O)N1CCN(Cc2ccnc(Nc3ncc(C#N)s3)c2)CC1 [Form D, 4-[2-(5-cyano-thiazol-2-ylamino)-pyridin-4-ylmethyl]-piperazine-1-carboxylic acid methylamide] | – | slightly hygroscopic | retains the same form | 3.7 | 1900 (≈ 5.32 mM) | 2.1 | solid form by hot-stage XRPD ([2]; 100° C.): retained its form; solid form by hot-stage XRPD ([2]; 175° C.): changed to a different anhydrous form (Form F)
CNC(=O)N1CCN(Cc2ccnc(Nc3ncc(C#N)s3)c2)CC1 [Form F, 4-[2-(5-cyano-thiazol-2-ylamino)-pyridin-4-ylmethyl]-piperazine-1-carboxylic acid methylamide] | – | nonhygroscopic | – | – | 5700 (≈ 15.9 mM) | 2.7 | solid form upon storage ([2]; 25° C. and ambient RH): remains anhydrous; solid form after suspension in water (2 weeks suspension): complete conversion to the monohydrate (Form D); solid form after suspension in water (2 days suspension): no conversion to the monohydrate (Form D)
CNC(=O)N1CCN(Cc2ccnc(Nc3ncc(C#N)s3)c2)CC1 [Form E, 4-[2-(5-cyano-thiazol-2-ylamino)-pyridin-4-ylmethyl]-piperazine-1-carboxylic acid methylamide] | converted to Form D | non-hygroscopic | – | 1.06 | – | – | –
CNC(=O)N1CCN(Cc2ccnc(Nc3ncc(C#N)s3)c2)CC1 [Form H, 4-[2-(5-cyano-thiazol-2-ylamino)-pyridin-4-ylmethyl]-piperazine-1-carboxylic acid methylamide] | – | – | converts to Form I | – | 5400 (≈ 15.1 mM) | 2.5 | –
CNC(=O)N1CCN(Cc2ccnc(Nc3ncc(C#N)s3)c2)CC1 [Form G, 4-[2-(5-cyano-thiazol-2-ylamino)-pyridin-4-ylmethyl]-piperazine-1-carboxylic acid methylamide] | – | only slightly hygroscopic | converts to Form I | – | 5100 (≈ 14.3 mM) | 2.6 | stepwise weight increases ([1]; at 15% RH and 90% RH, reversible): 3 % wt.

Continued, in another order:

solid form after suspension in water (suspension time not stated) | hygroscopicity (in words) ([1]; 25° C.) | solid form after suspension in water (3 weeks suspension) | weight gain [1] [% wt.] | solubility in water (drug concentration in the supernatant) [3] [µg/mL] | pH of the resulting aqueous solution [3] | Compound | other results
converted back to the HCl monohydrate D | – | – | – | – | – | CNC(=O)N1CCN(Cc2ccnc(Nc3ncc(C#N)s3)c2)CC1 [hydrochloride ethanolate, 4-[2-(5-cyano-thiazol-2-ylamino)-pyridin-4-ylmethyl]-piperazine-1-carboxylic acid methylamide] | –
no change in forms | nonhygroscopic | – | 0.3 | 510 (≈ 1.43 mM) | 3.6 | CNC(=O)N1CCN(Cc2ccnc(Nc3ncc(C#N)s3)c2)CC1 [Form J, 4-[2-(5-cyano-thiazol-2-ylamino)-pyridin-4-ylmethyl]-piperazine-1-carboxylic acid methylamide] | –
converts to form J | nonhygroscopic | – | – | – | – | CNC(=O)N1CCN(Cc2ccnc(Nc3ncc(C#N)s3)c2)CC1 [Form K, 4-[2-(5-cyano-thiazol-2-ylamino)-pyridin-4-ylmethyl]-piperazine-1-carboxylic acid methylamide] | –
– | nonhygroscopic | no change in forms | 0.75 | 310 | 3.6 | CNC(=O)N1CCN(Cc2ccnc(Nc3ncc(C#N)s3)c2)CC1 [tartrate salt, 4-[2-(5-cyano-thiazol-2-ylamino)-pyridin-4-ylmethyl]-piperazine-1-carboxylic acid methylamide] | –

In brackets after ≈: the same amount, converted by molar mass. Where a name gives a salt, the structure may show the parent alone. Read-outs that look alike come from different tables or passages of the source.
